Laboratory results as given in ChEMBL document CHEMBL4725338, “Discovery of novel histone lysine methyltransferase G9a/GLP (EHMT2/1) inhibitors: Design, synthesis, and structure-activity relationships of 2,4-diamino-6-methylpyrimidines” (Bioorg Med Chem Lett, 2020).

Molecular target: T1, Histone-lysine N-methyltransferase EHMT2 (Homo sapiens, UniProt Q96KQ7)
T1 sequence (Q96KQ7 whole entry): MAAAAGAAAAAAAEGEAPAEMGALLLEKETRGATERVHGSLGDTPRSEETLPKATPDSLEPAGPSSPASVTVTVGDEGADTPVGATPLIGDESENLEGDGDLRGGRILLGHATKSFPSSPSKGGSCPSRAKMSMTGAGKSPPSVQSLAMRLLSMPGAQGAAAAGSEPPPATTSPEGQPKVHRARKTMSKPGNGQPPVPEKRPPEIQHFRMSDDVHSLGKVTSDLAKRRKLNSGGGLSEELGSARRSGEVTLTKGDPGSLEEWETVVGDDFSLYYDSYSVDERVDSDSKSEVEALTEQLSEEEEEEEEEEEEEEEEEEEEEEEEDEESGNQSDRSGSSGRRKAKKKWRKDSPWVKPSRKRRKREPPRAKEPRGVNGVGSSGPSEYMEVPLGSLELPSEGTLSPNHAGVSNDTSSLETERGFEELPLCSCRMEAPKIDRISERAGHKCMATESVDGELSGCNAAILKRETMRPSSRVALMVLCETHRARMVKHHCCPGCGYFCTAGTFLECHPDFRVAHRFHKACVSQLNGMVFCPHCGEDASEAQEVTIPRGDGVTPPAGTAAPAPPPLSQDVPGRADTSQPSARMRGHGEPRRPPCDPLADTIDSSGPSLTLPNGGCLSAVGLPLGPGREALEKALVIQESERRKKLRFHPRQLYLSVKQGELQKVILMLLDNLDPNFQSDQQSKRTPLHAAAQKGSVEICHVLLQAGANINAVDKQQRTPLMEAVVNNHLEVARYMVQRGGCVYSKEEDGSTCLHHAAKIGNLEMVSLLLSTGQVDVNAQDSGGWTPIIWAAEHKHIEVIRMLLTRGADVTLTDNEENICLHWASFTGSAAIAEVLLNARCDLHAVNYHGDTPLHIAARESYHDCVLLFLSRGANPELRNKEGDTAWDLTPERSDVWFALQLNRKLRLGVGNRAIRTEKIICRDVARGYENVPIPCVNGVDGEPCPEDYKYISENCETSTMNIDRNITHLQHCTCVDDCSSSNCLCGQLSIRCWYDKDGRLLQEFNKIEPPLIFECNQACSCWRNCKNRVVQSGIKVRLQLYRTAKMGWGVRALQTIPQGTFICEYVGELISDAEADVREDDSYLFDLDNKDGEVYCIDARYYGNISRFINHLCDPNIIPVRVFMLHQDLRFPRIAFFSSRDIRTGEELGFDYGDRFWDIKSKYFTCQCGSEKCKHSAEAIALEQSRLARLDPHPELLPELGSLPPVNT
Assay: Inhibition G9a (unknown origin)

SMILES: CNc1cc(C)nc(Nc2ccc(OC)c(C3=CCN(C)CCC3)c2)n1
- IC50: 0.0151 µM
